Assay results as given in US20160237071A1, “T-TYPE CALCIUM CHANNEL INHIBITOR” (NISSAN CHEMICAL INDUSTRIES, LTD., priority 2013, published 2016).

Amino acid sequences for entries named in this document (tags omitted).
UniProt O95180, whole entry: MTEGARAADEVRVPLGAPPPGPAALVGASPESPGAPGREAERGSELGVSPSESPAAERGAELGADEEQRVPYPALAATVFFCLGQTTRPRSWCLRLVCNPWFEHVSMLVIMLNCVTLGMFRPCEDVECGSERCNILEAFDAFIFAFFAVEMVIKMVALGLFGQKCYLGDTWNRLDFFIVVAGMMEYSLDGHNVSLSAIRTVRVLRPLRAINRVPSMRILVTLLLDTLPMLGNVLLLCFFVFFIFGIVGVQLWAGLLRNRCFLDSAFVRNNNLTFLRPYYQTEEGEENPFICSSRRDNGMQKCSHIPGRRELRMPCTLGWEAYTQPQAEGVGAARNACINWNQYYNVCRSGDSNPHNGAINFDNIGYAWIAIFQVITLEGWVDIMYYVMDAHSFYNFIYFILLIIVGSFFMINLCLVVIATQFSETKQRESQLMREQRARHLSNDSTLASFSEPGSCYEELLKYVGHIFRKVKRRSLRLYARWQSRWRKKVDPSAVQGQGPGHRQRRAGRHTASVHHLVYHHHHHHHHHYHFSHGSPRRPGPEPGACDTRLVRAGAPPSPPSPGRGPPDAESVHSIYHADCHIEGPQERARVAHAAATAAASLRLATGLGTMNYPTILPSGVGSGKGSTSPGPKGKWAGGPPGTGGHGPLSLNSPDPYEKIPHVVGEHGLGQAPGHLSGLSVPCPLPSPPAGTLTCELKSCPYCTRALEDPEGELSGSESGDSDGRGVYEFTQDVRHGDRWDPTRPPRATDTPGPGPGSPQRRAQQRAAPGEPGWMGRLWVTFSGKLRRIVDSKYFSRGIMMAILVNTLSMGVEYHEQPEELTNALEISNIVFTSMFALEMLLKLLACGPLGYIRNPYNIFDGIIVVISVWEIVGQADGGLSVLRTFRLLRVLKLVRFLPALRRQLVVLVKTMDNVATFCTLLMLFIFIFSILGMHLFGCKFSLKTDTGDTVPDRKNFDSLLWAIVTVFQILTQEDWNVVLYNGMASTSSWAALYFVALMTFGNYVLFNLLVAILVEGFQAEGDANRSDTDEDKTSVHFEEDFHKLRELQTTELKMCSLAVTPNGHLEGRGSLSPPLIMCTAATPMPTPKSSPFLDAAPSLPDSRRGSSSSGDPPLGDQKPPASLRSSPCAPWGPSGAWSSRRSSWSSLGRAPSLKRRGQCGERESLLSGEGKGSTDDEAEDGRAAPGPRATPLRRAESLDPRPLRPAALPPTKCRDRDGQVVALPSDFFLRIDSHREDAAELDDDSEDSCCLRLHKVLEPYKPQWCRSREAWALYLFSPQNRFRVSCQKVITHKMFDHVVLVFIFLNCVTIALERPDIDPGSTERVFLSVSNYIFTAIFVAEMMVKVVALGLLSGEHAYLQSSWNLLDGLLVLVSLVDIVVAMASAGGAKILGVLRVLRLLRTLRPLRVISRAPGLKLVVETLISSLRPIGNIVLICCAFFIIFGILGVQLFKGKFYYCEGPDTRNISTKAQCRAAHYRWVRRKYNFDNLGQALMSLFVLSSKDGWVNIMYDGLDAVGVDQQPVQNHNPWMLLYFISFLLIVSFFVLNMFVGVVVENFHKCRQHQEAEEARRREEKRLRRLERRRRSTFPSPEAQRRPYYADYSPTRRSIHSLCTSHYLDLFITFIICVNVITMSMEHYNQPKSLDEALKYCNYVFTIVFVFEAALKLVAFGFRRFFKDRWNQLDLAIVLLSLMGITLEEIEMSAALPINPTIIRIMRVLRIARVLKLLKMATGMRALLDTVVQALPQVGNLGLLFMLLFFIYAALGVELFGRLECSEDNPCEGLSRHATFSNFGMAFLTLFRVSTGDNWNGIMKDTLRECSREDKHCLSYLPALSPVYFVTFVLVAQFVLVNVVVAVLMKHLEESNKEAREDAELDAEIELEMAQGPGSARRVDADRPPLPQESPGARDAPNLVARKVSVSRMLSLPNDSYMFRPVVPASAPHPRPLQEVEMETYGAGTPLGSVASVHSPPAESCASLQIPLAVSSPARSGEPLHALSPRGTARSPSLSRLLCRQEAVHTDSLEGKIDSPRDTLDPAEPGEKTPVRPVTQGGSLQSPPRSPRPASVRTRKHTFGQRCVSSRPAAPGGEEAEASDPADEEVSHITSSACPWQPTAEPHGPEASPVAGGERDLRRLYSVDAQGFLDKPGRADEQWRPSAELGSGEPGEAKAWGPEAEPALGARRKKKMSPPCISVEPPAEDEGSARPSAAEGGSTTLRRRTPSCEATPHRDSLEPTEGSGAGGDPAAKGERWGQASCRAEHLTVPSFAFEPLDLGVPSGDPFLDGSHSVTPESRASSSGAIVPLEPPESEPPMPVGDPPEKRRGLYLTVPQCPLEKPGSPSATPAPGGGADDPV

Molecular target: Human T-type calcium channel (Cav 3.2) (Homo sapiens, UniProt O95180)
Experiment: Calcium influx inhibition assay
Details: read-out: C50; T-type calcium channel inhibition concentration; Cav 3.2 expressing HEK293 cells, FLIPR Calcium 4 fluorescence
Procedure: Human T-type calcium channel (Cav 3.2) expressing HEK293 cells were obtained from Prof. Edward Perez-Reyes, University of Virginia, USA. The calcium-sensitive fluorescent dye used was FLIPR Calcium 4 Assay Kit (Molecular Devices).
To a black 96-well plate with a clear bottom coated with type I collagen, the human T-type calcium channel (Cav 3.2) expressing HEK293 cells were seeded and cultured overnight, and the culture medium was removed. A solution of the calcium-sensitive fluorescent dye was added, and the whole was incubated at 37° C. in an atmosphere of 5% carbon dioxide for 30 minutes. To the plate, a diluted solution of a compound was added, and the whole was further incubated at 37° C. in an atmosphere of 5% carbon dioxide for 30 minutes. While fluorescence was continuously analyzed from the bottom with a FlexStation 3 (Molecular Devices), a calcium solution was added. […] From the rise in the fluorescence from the base line, the inhibition percentage was calculated. The logarithms of compound concentrations were plotted with respect to the inhibition activities to obtain an IC50 value (50% inhibition concentration).

## COc1ccc2c(c1)C(O)CN(c1ncn(Cc3ccc(OS(=O)(=O)C(F)(F)F)nc3)c(=O)n1)C2 (stereo not shown)
  IC50: 35 nM
